From patent US20230382863A1, “MEK INHIBITORS AND USES THEREOF” (Ikena Oncology, Inc., priority 2022, published 2023)

Test system: cancer cell lines
Assay: In vitro MEK inhibitor drug combinations (Cell Titer Glo, Loewe synergy)
Type: cell-based
Procedure: Cell viability was determined by Cell Titer Glo assay. […] A normalized Loewe sum of synergy score of >10 was considered synergistic, <10, but >−10 additive, and <−10 antagonistic.

With `COc1cc2nc(C)nc(N[C@H](C)c3cc(N)cc(C(F)(F)F)c3)c2cc1O[C@H]1CCOC1` [BI3406] the “Loewe Synergy Score > 10” value was 4/6 cell lines.
